In the experiment the test system is HEK293. Briefly: Selectivity ratio of Ki for human recombinant 5-HT2A receptor expressed in HEKT cell membrane to Ki for human recombinant 5-HT2B receptor stably expressed in HEK cells. It counts as cell-based.

Take `COc1ccc(CCN(CCCc2cc(OC)c(OC)c(OC)c2)Cc2ccc3c(c2)OCO3)cc1OC`: the Ratio Ki was determined as 10.

The record behind these values is ChEMBL document CHEMBL3734659, “Identification of tris-(phenylalkyl)amines as new selective h5-HT2Breceptor antagonists” (Medchemcomm, 2015).
